Source: publication PMC5976250 (The Biochemical journal, 2017)

Biological target: recombinant rat CaM (calmodulin) (rat)
Test: MALDI mass spectrometry

In the case of GRRRIREDGLMKIYVLQLLARTV (acylated (Ac-) N-terminus; aminated (-NH2) C-terminus) [Cx45p_(164–186)], the “stoichiometry N” value is reported as 1.
